According to patent US20230165965A1, “NEW COUMARIN-POLYMER CONJUGATES AND USES THEREOF” (Onyel Biotech S.r.l., priority 2020, published 2023):

Experiments:
[1] = 2P absorption patterning and 2P hydrogel polymerization; assay type: physicochemical; details: 2P excitation, 700<λ<950 nm, constant power
Protocol: For 2P absorption, HCC-PEG was patterned onto HCCA-functionalised glass coverslips following the highly spatially localized 2P excitation given by a multiphoton laser-scanning microscope. HCCA-functionalization on coverslip was achieved as follows. Coverslips were cleaned and extensively rinsed with deionized water and finally oxidized by the PDC-002-CE Plasma Cleaner (Harrick Plasma, Ithaca, N.Y., USA) for 30 seconds. The glass slide was incubated in a 2% (v/v) APTES solution in absolute ethanol (300 μL) under gently stirring. After 6 minutes, the substrate was washed three times with ethanol to remove unbound APTES and finally dried at 110° C. for 2 hours. […] 2P microscope was used to irradiate surfaces in contact with HCC-PEG solution and produce 2P cross-linked area of 850×850 μm^2, 425×425 μm^2 and 280×280 μm^2 (laser wavelength of 800 nm; laser power 0.7 mW measured before objective back aperture: writing time of 1.14 ms/line and rate of 1.72 frame/s; 4 frame per plane).
With the aim to provide glass surface HCCA-groups for covalent bonding HCC-branched polymers solutions were drop-cast onto glass coverslip previously functionalized with HCCA- as described in Section 10. […] Laser power is measured before objective back aperture, corresponding to about 1% of the power on the sample plane. […]

[2] = Atomic force measurement (AFM) of hydrogel Young's modulus; assay type: physicochemical
Protocol: With the aim to provide glass surface HCCA-groups for covalent bonding HCC-branched polymers solutions were drop-cast onto glass coverslip previously functionalized with HCCA- as described in Section 10. HCC-4arm PEG and HCC-8arm PEG were dissolved in PBS (300 mg/mL) at room temperature under agitation. HCC-Gel was dissolved in PBS (100 mg/mL) under agitation at 60° C. for 10 min. When coverslips were used, a second coverslip was placed on top of the drop of HCC-polymeric solutions to limit water evaporation during the irradiation process. […] Laser power is measured before objective back aperture, corresponding to about 1% of the power on the sample plane. […]
For crosslinking reaction analysis, 5 μL CMMC-4 arm PEG (300 mg/mL) or CMMC-Gel (100 mg/mL) solution was located in a humid chamber at 3 cm from a 365 nm UV LED Gen 2 Emitter LZ4-04UV00 (Led Engin) and irradiated for different minutes as reported. When CMMC-Gel solution was analysed at different concentrations (100 mg/mL, 120 mg/mL, 140 mg/mL, 160 mg/mL, 180 mg/mL and 200 mg/mL), 5 μL of solution was located in a humid chamber at 3 cm from a 365 nm UV LED Gen 2 Emitter LZ4-04UV00 (Led Engin) and irradiated for 3 minutes. […]
The Young's modulus was calculated applying a fit of the Hertz model to the force curve, assuming a Poisson ratio of 0.5. […]

[3] = tested on: human small intestinal organoids (hSIOs)
Source text: ImageJ software were used for adjustments of levels and contrast, maximum and standard deviation intensity projections, 3D reconstructions and thresholding to create binary mask used for directionality and ferret angle measurements. To quantify the directionality of i3D bioprinted cells, at least 9 fluorescence images of independent biological triplicates for each sample were converted in binary masks, then analyzed with directionality plugin of ImageJ software (that indicates the amount of structures in a given direction). To quantify the shape of enclosed hSIOs, at least 9 fluorescence images of independent biological triplicates for each sample were converted in binary masks, then analyzed with measure plugin of ImageJ software to quantify the Feret's angle (the angle between the longest distance of the axis of any two points along the selection boundary (Feret's diameter) and a line parallel to the x-axis of the image).

skeletal muscle = experiment: i3D printing into muscle across epimysium; assay type: in vivo, mice; details: 1 mW and 2 mW laser power, under epimysium
Protocol: Mice were anaesthetized using i.p. injection of Zoletil® 50/50 (40 mg/kg) and Rompun® 2% Xilazina (5 mg/kg) in physiologic solution. Induction of deep surgical anaesthesia was confirmed by absence of reaction to hind foot pinch. The surgical procedure underwent in aseptic conditions (skin preparation, sterilized instruments, gloves and drapes). […] For blood flow analysis, Rhodamine B isothiocyanate-Dextran (Sigma, R9379) was injected in tail vein at 50 mg/mL in physiologic solution. When required, skin wound was closed with Vicryl 6-0 suture and no movement or space restriction were applied to animals after treatments. At the required time point, animals were deeply anesthetized, subjected to stereomicroscope and/or 2P intravital imaging, then sacrificed for tissues collection.

hES-derived NSCs = details: three days after seeding, pre-assembled flat hydrogels
Fibroblasts (FBs) = details: six hours after hydrogel crosslinking
wild type mice = details: subcutaneous injection, wild type mice, 4, 7 and 21 days

Substance: 7-hydroxycoumarin-3-carboxamide-gelatin [HCC-Gel]
- stability of single 3D objects after removal of non-crosslinked solution [1]: remained stable
- elastic modulus of hydrogel fabricated in Matrigel vs in absence of Matrigel ([2]; 2P crosslinking, after Matrigel dissociation): comparable elastic modulus
- reduction of Young's modulus in presence of cells ([2]; cell-laden bioprinted structures): about 6%
- cytocompatibility on enclosed hSIOs by live/dead assay ([3]; after 2 days and 8 days of culture): cytocompatibility on hSIOs enclosed in the structures was demonstrated
- hSIO viability / survival and growth in culture ([3]; polymer combined with Matrigel): support the viability and the growth
- myofiber contraction and heat-induced tissue damage during i3D bioprinting (skeletal muscle): No myofiber contraction nor heat-induced tissue damage
- neural markers and apoptosis of hES-derived NSCs (hES-derived NSCs): expression of specific neural markers and absence of apoptosis
- viability of FBs in cell-laden hydrogel (Fibroblasts (FBs)): viable
- histology, TUNEL and macrophage staining vs PBS (wild type mice): no evident histological modification, cell apoptosis or macrophage infiltration
